Laboratory results reported in publication PMC9305987 (Nature cell biology, 2022).

Molecular target: T1, mTET2^CD (Mus musculus, UniProt Q4JK59)
T1 sequence (Q4JK59 1042-1912 limits assumed): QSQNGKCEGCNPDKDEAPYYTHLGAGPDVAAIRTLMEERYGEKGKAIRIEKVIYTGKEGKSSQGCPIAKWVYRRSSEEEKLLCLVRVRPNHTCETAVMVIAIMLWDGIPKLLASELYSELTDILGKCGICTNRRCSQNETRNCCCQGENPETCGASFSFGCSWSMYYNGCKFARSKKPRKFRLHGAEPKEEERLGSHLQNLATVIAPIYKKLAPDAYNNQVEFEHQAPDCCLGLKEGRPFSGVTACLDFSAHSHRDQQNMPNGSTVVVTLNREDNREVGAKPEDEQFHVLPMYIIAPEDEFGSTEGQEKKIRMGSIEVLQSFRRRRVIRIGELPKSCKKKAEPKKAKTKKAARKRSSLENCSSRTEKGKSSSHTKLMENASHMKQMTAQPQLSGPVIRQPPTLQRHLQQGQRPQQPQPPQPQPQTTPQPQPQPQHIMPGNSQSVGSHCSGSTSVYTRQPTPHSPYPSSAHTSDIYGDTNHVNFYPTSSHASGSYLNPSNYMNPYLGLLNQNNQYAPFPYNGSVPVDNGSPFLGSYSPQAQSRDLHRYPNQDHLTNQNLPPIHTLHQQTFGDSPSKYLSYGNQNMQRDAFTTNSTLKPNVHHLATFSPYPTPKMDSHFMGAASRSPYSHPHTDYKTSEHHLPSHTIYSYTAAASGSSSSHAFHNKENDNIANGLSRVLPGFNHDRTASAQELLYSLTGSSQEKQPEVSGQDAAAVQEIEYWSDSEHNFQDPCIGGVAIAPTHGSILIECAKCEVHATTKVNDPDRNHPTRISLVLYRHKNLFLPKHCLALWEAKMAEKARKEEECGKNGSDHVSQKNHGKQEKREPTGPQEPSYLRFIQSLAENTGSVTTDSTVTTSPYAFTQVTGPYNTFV
Assay type: biochemical
Details: read-out: IC50 toward mTET2^CD catalytic activity; 0.1 mM α-KG, 37°C 30 min

succinate
IC50: > 5 mM
